Source: patent US5030649A, “2-aminoethylamine derivatives, compositions of the same and use of said compounds in medicine” (dated 1991)

Assay: Mouse tail-flick test (analgesic activity, subcutaneous)
Settings: subcutaneous in isotonic saline, 30 min after dosing, activity = percent of mice doubling initial reaction time

SMILES | MOUSE TAIL-FLICK ED50 SUBCUTANEOUS
CN(C(=O)Cc1ccc(Cl)c(Cl)c1)[C@@H](Cc1ccccc1)CN1CCCC1 | > 10 mg/kg
CN(C(=O)Cc1cccc(C(F)(F)F)c1)[C@H](CN1CCCC1)c1ccccc1 | 0.097 mg/kg
CN(C(=O)Cc1ccc2c(c1)CCCC2)[C@H](CN1CCCC1)c1ccccc1 | 0.149 mg/kg
